# Reference: patent US6936585B2, “Corticotropin releasing factor 2 receptor agonists” (priority 2002, dated 2005)
# pEC50: −log10 of the molar value.
# How the values were obtained:
# CRF1R = molecular target: T1, CRF1R (Homo sapiens, UniProt P34998); assay: CRF1R agonist activation (EC50 / Emax), called comparative CRF binding; assay type: cell-based; settings: for pEC50: CRF1R EC50; for Emax: read-out: CRF1R Emax
# T1 sequence (P34998 24-415): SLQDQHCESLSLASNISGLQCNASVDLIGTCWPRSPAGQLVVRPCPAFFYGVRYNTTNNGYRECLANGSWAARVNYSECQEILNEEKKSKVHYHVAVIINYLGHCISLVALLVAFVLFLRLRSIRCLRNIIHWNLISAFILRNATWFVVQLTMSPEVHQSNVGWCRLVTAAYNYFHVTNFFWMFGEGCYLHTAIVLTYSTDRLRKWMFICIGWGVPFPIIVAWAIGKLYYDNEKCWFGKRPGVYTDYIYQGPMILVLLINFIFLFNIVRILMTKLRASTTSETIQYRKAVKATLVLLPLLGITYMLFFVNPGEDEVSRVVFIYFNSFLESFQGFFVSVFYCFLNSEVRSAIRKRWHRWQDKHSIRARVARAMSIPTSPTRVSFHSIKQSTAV
# Procedure, shortened: (§1)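 Peptides are tested on cells bearing CRF1R or CRF2R, full length or as ligand-binding-domain constructs coupled to reporters or G proteins. Activation is scored by cAMP rise, measured in lysates or by CRE-reporter output, against vehicle control.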
# CRF2R = molecular target: T2, CRF2R (Homo sapiens, UniProt Q13324); assay: CRF2R agonist activation (EC50 / Emax), called comparative CRF binding; assay type: cell-based; settings: for Emax: read-out: CRF2R Emax
# T2 sequence (Q13324 1-411): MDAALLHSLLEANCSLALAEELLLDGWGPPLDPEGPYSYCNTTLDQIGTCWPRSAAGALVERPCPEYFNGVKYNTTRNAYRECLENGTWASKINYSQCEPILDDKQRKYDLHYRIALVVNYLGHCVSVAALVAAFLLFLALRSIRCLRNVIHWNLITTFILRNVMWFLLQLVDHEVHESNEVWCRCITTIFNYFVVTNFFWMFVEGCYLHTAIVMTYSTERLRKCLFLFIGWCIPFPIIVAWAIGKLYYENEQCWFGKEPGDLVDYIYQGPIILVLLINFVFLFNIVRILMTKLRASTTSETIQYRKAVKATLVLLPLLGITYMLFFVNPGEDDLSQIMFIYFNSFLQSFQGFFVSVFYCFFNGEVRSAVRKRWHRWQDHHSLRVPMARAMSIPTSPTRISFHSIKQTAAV
# Procedure, shortened: as §1
SMILES,pEC50 (CRF1R),Emax (CRF1R) [%],pEC50 (CRF2R),Emax (CRF2R) [%]
CC[C@H](C)[C@H](NC(=O)[C@H](CCCNC(=N)N)NC(=O)[C@H](C)NC(=O)[C@H](CC(C)C)NC(=O)[C@H](CC(C)C)NC(=O)[C@H](CCCNC(=N)N)NC(=O)[C@H](C)NC(=O)[C@H](CC(N)=O)NC(=O)[C@H](CC(N)=O)NC(=O)[C@H](C)NC(=O)[C@H](C)NC(=O)[C@H](CCC(N)=O)NC(=O)[C@H](CCC(N)=O)NC(=O)[C@H](CCCCN)NC(=O)[C@H](CCC(=O)O)NC(=O)[C@H](CCCCN)NC(=O)[C@H](CCC(=O)O)NC(=O)[C@H](CCC(N)=O)NC(=O)[C@H](CCCCN)NC(=O)[C@H](CCC(=O)O)NC(=O)[C@@H](NC(=O)[C@H](CCC(=O)O)NC(=O)[C@@H](NC(=O)[C@@H](NC(=O)[C@H](CCCCN)NC(=O)[C@H](CCCNC(=N)N)NC(=O)[C@H](CC(C)C)NC(=O)[C@H](CC(C)C)NC(=O)[C@H](CCC(N)=O)NC(=O)[C@H](CC(C)C)NC(=O)[C@@H]1CCCN1C(=O)[C@@H](NC(=O)[C@H](CC(=O)O)NC(=O)[C@@H](NC(=O)[C@H](CO)NC(=O)[C@@H](NC(=O)[C@@H]1CCCN1C(=O)[C@@H]1CCCN1C(=O)CNC(=O)[C@@H]1CCC(=O)N1)[C@@H](C)CC)[C@@H](C)CC)C(C)C)C(C)C)[C@@H](C)CC)[C@@H](C)CC)C(N)=O [compound 381],≤ 6.00,27,7.90,99
CC[C@H](C)[C@H](NC(=O)[C@@H](NC(=O)[C@H](CC(=O)O)NC(=O)[C@H](CC(C)C)NC(=O)[C@H](CC(C)C)NC(=O)[C@H](CC(C)C)NC(=O)[C@H](C)NC(=O)[C@H](CC(N)=O)NC(=O)[C@H](CC(N)=O)NC(=O)[C@H](C)NC(=O)[C@H](C)NC(=O)[C@H](CCC(N)=O)NC(=O)[C@H](CCC(N)=O)NC(=O)[C@H](CCCCN)NC(=O)[C@H](CCC(=O)O)NC(=O)[C@H](CCCCN)NC(=O)[C@H](CCC(=O)O)NC(=O)[C@H](CCC(N)=O)NC(=O)[C@H](CCCCN)NC(=O)[C@H](CCC(=O)O)NC(=O)[C@@H](NC(=O)[C@H](CCC(=O)O)NC(=O)[C@@H](NC(=O)[C@@H](NC(=O)[C@H](CCCCN)NC(=O)[C@H](CCCNC(=N)N)NC(=O)[C@H](CC(C)C)NC(=O)[C@H](CC(C)C)NC(=O)[C@H](Cc1ccccc1)NC(=O)[C@H](Cc1ccccc1)NC(=O)[C@@H]1CCCN1C(=O)[C@H](CC(C)C)NC(=O)[C@H](CC(=O)O)NC(=O)[C@@H](NC(=O)[C@H](CO)NC(=O)[C@@H](NC(=O)[C@@H]1CCCN1C(=O)[C@@H]1CCCN1C(=O)CNC(=O)[C@@H]1CCC(=O)N1)[C@@H](C)CC)[C@@H](C)CC)C(C)C)[C@@H](C)CC)[C@@H](C)CC)[C@@H](C)O)C(N)=O [compound 316],–,92.3,–,94.5
CC[C@H](C)[C@H](NC(=O)[C@@H](NC(=O)[C@H](CC(=O)O)NC(=O)[C@H](CC(C)C)NC(=O)[C@H](CC(C)C)NC(=O)[C@H](CC(C)C)NC(=O)[C@H](CCCNC(=N)N)NC(=O)[C@H](CC(N)=O)NC(=O)[C@H](CC(N)=O)NC(=O)[C@H](C)NC(=O)[C@H](C)NC(=O)[C@H](CCC(N)=O)NC(=O)[C@H](CCC(N)=O)NC(=O)[C@H](CCCCN)NC(=O)[C@H](CCC(=O)O)NC(=O)[C@H](CCCCN)NC(=O)[C@H](CCC(=O)O)NC(=O)[C@H](CCC(N)=O)NC(=O)[C@H](CCCCN)NC(=O)[C@H](CCC(=O)O)NC(=O)[C@@H](NC(=O)[C@H](CCC(=O)O)NC(=O)[C@@H](NC(=O)[C@H](CCSC)NC(=O)[C@H](CCCCN)NC(=O)[C@H](CCCNC(=N)N)NC(=O)[C@H](CC(C)C)NC(=O)[C@H](CC(C)C)NC(=O)[C@H](Cc1ccc(O)cc1)NC(=O)[C@H](C)NC(=O)[C@@H]1CCCN1C(=O)[C@H](CC(C)C)NC(=O)[C@H](CC(=O)O)NC(=O)[C@@H](NC(=O)[C@H](CO)NC(=O)[C@@H](NC(=O)[C@@H]1CCCN1C(=O)[C@@H]1CCCN1C(=O)CNC(=O)[C@@H]1CCC(=O)N1)[C@@H](C)CC)[C@@H](C)CC)[C@@H](C)CC)[C@@H](C)CC)[C@@H](C)O)C(N)=O [compound 32],–,94,–,98
CC[C@H](C)[C@H](NC(=O)[C@@H](NC(=O)[C@H](CC(=O)O)NC(=O)[C@H](CC(C)C)NC(=O)[C@H](CC(C)C)NC(=O)[C@H](CC(C)C)NC(=O)[C@H](CCCNC(=N)N)NC(=O)[C@H](CC(N)=O)NC(=O)[C@H](CC(N)=O)NC(=O)[C@H](C)NC(=O)[C@H](C)NC(=O)[C@H](CCC(N)=O)NC(=O)[C@H](CCC(N)=O)NC(=O)[C@H](CCCCN)NC(=O)[C@H](CCC(=O)O)NC(=O)[C@H](CCCCN)NC(=O)[C@H](CCC(=O)O)NC(=O)[C@H](CCC(N)=O)NC(=O)[C@H](CCCCN)NC(=O)[C@H](CCC(=O)O)NC(=O)[C@@H](NC(=O)[C@H](CCC(=O)O)NC(=O)[C@@H](NC(=O)[C@H](CCSC)NC(=O)[C@H](CCCCN)NC(=O)[C@H](CCCNC(=N)N)NC(=O)[C@H](CC(C)C)NC(=O)[C@H](CC(C)C)NC(=O)[C@H](Cc1c[nH]c2ccccc12)NC(=O)[C@@H](NC(=O)[C@@H]1CCCN1C(=O)[C@H](CC(C)C)NC(=O)[C@H](CC(=O)O)NC(=O)[C@@H](NC(=O)[C@H](CO)NC(=O)[C@@H](NC(=O)[C@@H]1CCCN1C(=O)[C@@H]1CCCN1C(=O)CNC(=O)[C@@H]1CCC(=O)N1)[C@@H](C)CC)[C@@H](C)CC)[C@@H](C)CC)[C@@H](C)CC)[C@@H](C)CC)[C@@H](C)O)C(N)=O [compound 192],–,99,–,97
CC[C@H](C)[C@H](NC(=O)[C@@H](NC(=O)[C@H](CC(=O)O)NC(=O)[C@H](CC(C)C)NC(=O)[C@H](CC(C)C)NC(=O)[C@H](CC(C)C)NC(=O)[C@H](CCCNC(=N)N)NC(=O)[C@H](CC(N)=O)NC(=O)[C@H](CC(N)=O)NC(=O)[C@H](C)NC(=O)[C@H](C)NC(=O)[C@H](CCC(N)=O)NC(=O)[C@H](CCC(N)=O)NC(=O)[C@H](CCCCN)NC(=O)[C@H](CCC(=O)O)NC(=O)[C@H](CCCCN)NC(=O)[C@H](CCC(=O)O)NC(=O)[C@H](CCC(N)=O)NC(=O)[C@H](CCCCN)NC(=O)[C@H](CCC(=O)O)NC(=O)[C@@H](NC(=O)[C@H](CCC(=O)O)NC(=O)[C@@H](NC(=O)[C@H](CCSC)NC(=O)[C@H](CCCCN)NC(=O)[C@H](CCCNC(=N)N)NC(=O)[C@H](CC(C)C)NC(=O)[C@H](CC(C)C)NC(=O)[C@H](CCC(N)=O)NC(=O)[C@H](Cc1c[nH]c2ccccc12)NC(=O)[C@@H]1CCCN1C(=O)[C@H](CC(C)C)NC(=O)[C@H](CC(=O)O)NC(=O)[C@@H](NC(=O)[C@H](CO)NC(=O)[C@@H](NC(=O)[C@@H]1CCCN1C(=O)[C@@H]1CCCN1C(=O)CNC(=O)[C@@H]1CCC(=O)N1)[C@@H](C)CC)[C@@H](C)CC)[C@@H](C)CC)[C@@H](C)CC)[C@@H](C)O)C(N)=O [compound 210],7.36,90,7.99,97
